Experimental findings from patent US20110046887A1, “METHOD FOR ASSESSING PATHWAY PRODUCT LEVELS” (priority 2006, published 2011) are described below.

This data set can be described thus: Bayesian deconvolution of 24-hr pituitary-hormone concentration profiles (secretion and elimination parameters). The data set is classed as in vivo, human. The note with it: for Slow Half-Life: 24-hr 10-min sampled profile. Here is the method: The experimentalist requires an automated procedure by which to simultaneously detect pulse times and estimate secretion/kinetic features. […] In each case, discrete blood sampling (i.e., the withdrawal lasting 5-10 sec) was performed every 10 min for 24 hr. [Integrative sampling (continuous withdrawal) yields a time-integrated or flattened version of the impulse, thereby underestimating absolute peak values and overestimating interpulse valleys.] If the set (Y1, Y2, . . . , Yn) denotes observed hormone concentrations, n would be 145 for 10-min sampling over 24 hr. […] One would like to find values (a,b) so that, for a specified probability, e.g., 0.95, one can make the following probability statement:
Assuming that pulse-onset times are given by ℑm={T^1, T^2 . . . , T^m}, Keenan and Veldhuis give a model to estimate secretory dynamics conditional on pulse times (Keenan & Veldhuis, 1998; Keenan et al., 2000; Keenan et al., 1998). The primary components are basal and pulsatile secretion, a flexible secretory-burst shape, random effects on burst mass, biexponential elimination kinetics and combined experimental uncertainty in sample collection, processing and assay. We suppose that M, the amount of hormone secreted in the j^th burst (mass per unit distribution volume), is the sum of a finite amount of minimally available stores, a linear function of hormone accumulation over the preceding interpulse interval, and a random effect allowing for biological variability in individual burst mass:
In the present Bayesian approach, an a priori (prior) probability distribution is placed on the parameter space: Θ×ℑ, where ℑ={ℑN, ℑN-1, . . . , ℑp} in Eq. [16] and Θ denotes the parameter set in Eq. [14]. The prior density on Θ×ℑ is assumed to be a product: π×λ, with a uniform prior on Θ, π(θ)∝ to a Constant. The prior on ℑ is the Akaike Information Criterion (AIC) penalty for the number of pulse times m, λ(ℑm)∝exp(−m). […] Measured data Y=(Y1, Y2, . . . , Yn)′ are then incorporated via a likelihood function (Eq. [15]), resulting in the a posteriori (posterior) probability distribution on Θ×ℑ:
The algorithm of the present paper utilizes a mathematically justified procedure for simulating from the joint (Θ×ℑ) posterior distribution (Eq. [18]). The basic idea is that, for a given hormone concentration profile, one generates an array of (e.g. 100) simulations from the posterior distribution, which allows one then to make probabilistic statements about the parameters of pulse times, secretion and elimination.
total basal secretion as: n×β0, and total pulsatile as the difference. Repeated sampling of (θ,ℑm), and calculation of total pulsatile secretion (for each), produces a probability histogram approximating the posterior distribution for total pulsatile secretion, given an observed concentration profile. […] Specifically, in reference to Eq. [9]
Histograms are based on 100 simulations from the joint posterior distribution.

Regarding luteinizing hormone [LH], the “Slow Half-Life” value (0.05 quantile of posterior distribution, ACTH, LH young, GH person) was 1.9 h; the “Slow Half-Life” value (0.05 quantile of posterior distribution, LH older person (postmenopausal)) was determined as 0.317 h; the “Slow Half-Life” value (0.25 quantile of posterior distribution, ACTH, LH young, GH person) stood at 1.92 h; the “Slow Half-Life” value (0.25 quantile of posterior distribution, LH older person (postmenopausal)) came to 0.35 h; the “Slow Half-Life” value (0.50 quantile of posterior distribution, ACTH, LH young, GH person) is 1.93 h; the “Slow Half-Life” value (0.50 quantile of posterior distribution, LH older person (postmenopausal)) amounted to 0.433 h. Moreover, the “Slow Half-Life” value runs as follows: (0.75 quantile of posterior distribution, ACTH, LH young, GH person) 2 h; (0.75 quantile of posterior distribution, LH older person (postmenopausal)) 1.43 h; (0.95 quantile of posterior distribution, ACTH, LH young, GH person) 2.08 h; (0.95 quantile of posterior distribution, LH older person (postmenopausal)) 2.25 h. This substance came in with a half-lives (ACTH in a LH person, illustrative data sets) of 118 min.
